Results on 12 molecules are retold here after ChEMBL document CHEMBL1125045, “Hemicholinium-3 congeners as potential antagonists to organophosphate-induced toxicity” (1990).

The species named for data set [1] is Mus musculus. As to the kind of experiment: Percent survival of the mice after a fractional dose of 0 at 0.5 hr of pretreatment with paraoxon.
For data set [2], the species on record is Mus musculus. As to the kind of experiment: Percent survival of the mice after a fractional dose of 0 at 2 hr of pretreatment with paraoxon.
The species named for another data set is Oryctolagus cuniculus. As to the kind of experiment: Ability to inhibit neuromuscular transmission in rabbit was determined.
Data set [3] is filed under the species Mus musculus. Put plainly: Percent survival of the mice after a fractional dose of 50 at 0.5 hr of pretreatment with paraoxon.
The species entered for data set [4] is Mus musculus. Put plainly: Percent survival of the mice after a fractional dose of 75 at 0.5 hr of pretreatment with paraoxon.
For data set [5], the species on record is Mus musculus. Put plainly: Percent survival of the mice after a fractional dose of 12 at 2 hr of pretreatment with paraoxon.
The species entered for data set [6] is Mus musculus. As to the kind of experiment: Percent survival of the mice after a fractional dose of 25 at 0.5 hr of pretreatment with paraoxon.
Data set [7] deals with Mus musculus. Put plainly: Percent survival of the mice after a fractional dose of 25 mg/kg at 2 hr of pretreatment with paraoxon.
For data set [8], the system named is Mus musculus. Put plainly: Percent survival of the mice after a fractional dose of 38 mg/kg at 2 hr of pretreatment with paraoxon.
Data set [9] is filed under the species Mus musculus. As to the kind of experiment: Percent survival of the mice after a fractional dose of 88 at 0.5 hr of pretreatment with paraoxon.
In data set [10] the test system is Mus musculus. Put plainly: Percent survival of the mice after a fractional dose of 88 mg/kg at 2 hr of pretreatment with paraoxon.
The species named for data set [11] is Mus musculus. Put plainly: Percent survival of the mice after a fractional dose of 100 at 0.5 hr of pretreatment with paraoxon.
Data set [12] has as its system Mus musculus. As to the kind of experiment: Percent survival of the mice after a fractional dose of 100 mg/kg at 2 hr of pretreatment with paraoxon.
Data set [13] is described as follows: Therapeutic index is the ratio of LD50 to ED50.
The species entered for data set [14] is Mus musculus. Put plainly: Percent survival of the mice after a fractional dose of 63 at 0.5 hr of pretreatment with paraoxon.
The species named for data set [15] is Mus musculus. Put plainly: Protecting activity after paraoxon induced toxicity.
For data set [16], the species on record is Mus musculus. Put plainly: Percent survival of the mice after a fractional dose of 37 at 0.5 hr of pretreatment with paraoxon.
For data set [17], the system named is Mus musculus. As to the kind of experiment: Tested for its ability to protect mice against paraoxon-induced lethality; no death to 2079 uM/Kg. The note with it: in vivo.
The subject of data set [18] is Mus musculus. As to the kind of experiment: Percent survival of the mice after a fractional dose of 0 mg/kg at 2 hr of pretreatment with paraoxon.

In the case of `CC1CCC[N+]1(C)CC(=O)c1ccc(-c2ccc(C(=O)C[N+]3(C)CCCC3C)cc2)cc1` (centres undefined), the Survival in the data set filed under Mus musculus [1] and in the data set listed under Mus musculus [2] was 1% in each case. Moreover, the Activity in the data set filed under Oryctolagus cuniculus was determined as 0.057.
Take `C[N+]1(CC(=O)c2ccc(-c3ccc(C(=O)C[N+]4(C)CCCCC4)cc3)cc2)CCCCC1`: the Survival in the data set listed under Mus musculus [3], in the data set filed under Mus musculus [4], in the data set filed under Mus musculus [1] and in the data set filed under Mus musculus [2] was 1% throughout. The same molecule gave an Activity in the data set listed under Oryctolagus cuniculus of 0.11.
For the molecule `C[N+]1(CC(=O)c2ccc(-c3ccc(C(=O)C[N+]4(C)CCOCC4)cc3)cc2)CCOCC1`, the Survival in the data set listed under Mus musculus [5] and in the data set filed under Mus musculus [6] was 1% in each case. In the data set filed under Oryctolagus cuniculus, the Activity was 0.58.
Take `C[N+](C)(CC(=O)c1ccc(-c2ccc(C(=O)C[N+](C)(C)CC3OCCCO3)cc2)cc1)CC1OCCCO1`: the Survival in the data set with Mus musculus [7], in the data set on Mus musculus [8], in the data set listed under Mus musculus [9], with Mus musculus [10], in the data set listed under Mus musculus [11] and in the data set with Mus musculus [12] was 1% throughout. For the same molecule, the Survival in the data set filed under Mus musculus [6] and in the data set filed under Mus musculus [14] was 1% in each case. Moreover, the Therapeutic index in data set [13] was determined as 360. Further, it took a dose of 0.02 µmol/kg to reach the 50% effect level in the data set listed under Mus musculus [15] (ED50). Moreover, the Activity in the data set listed under Oryctolagus cuniculus is 0.34.
With `O=C(CN1CCCC1)c1ccc(-c2ccc(C(=O)CN3CCCC3)cc2)cc1`, the Survival in the data set listed under Mus musculus [1] and in the data set filed under Mus musculus [2] was 1% throughout.
Consider `O=C(CN1CCCCC1)c1ccc(-c2ccc(C(=O)CN3CCCCC3)cc2)cc1`, for which the Survival in the data set listed under Mus musculus [16] and in the data set filed under Mus musculus [2] was 1% in each case.
With `O=C(CN1CCOCC1)c1ccc(-c2ccc(C(=O)CN3CCOCC3)cc2)cc1`, the LD50 result with Mus musculus [17] is “no death to 2079 uM/Kg”.
On to `CN(C)C(=O)Oc1ccc[n+](C)c1`, for which, in [13], the Therapeutic index was found to be 8. Moreover, in the data set listed under Mus musculus [15], it took a dose of 1.3 µmol/kg to reach the 50% effect level (ED50).
Turning to `C[N+]1(CC(=O)c2ccc(-c3ccc(C(=O)C[N+]4(C)CCCC4)cc3)cc2)CCCC1`, the Survival in the data set listed under Mus musculus [1] and in the data set filed under Mus musculus [2] was 1% each time. Moreover, in the data set listed under Oryctolagus cuniculus, the Activity turned out to be 0.07.
Turning to `CNC(=O)Oc1ccc2c(c1)[C@]1(C)CCN(C)[C@@H]1N2C`, the Therapeutic index in data set [13] is 60.
Turning to `CC1CC[N+](C)(CC(=O)c2ccc(-c3ccc(C(=O)C[N+]4(C)CCC(C)C4)cc3)cc2)C1` (centres undefined), the Survival in the data set filed under Mus musculus [6] was found to be 1%. In addition, in the data set listed under Oryctolagus cuniculus, the Activity worked out at 0.021.
On to `CC1C[N+](C)(CC(=O)c2ccc(-c3ccc(C(=O)C[N+]4(C)CCOC(C)C4)cc3)cc2)CCO1` (centres undefined), for which the Survival in the data set filed under Mus musculus [9], in the data set listed under Mus musculus [1], in the data set on Mus musculus [18] and in the data set filed under Mus musculus [14] was 1% each time.
